Experiments:
[1] = molecular target: E. coli hinT (Escherichia coli, UniProt P0ACE7); assay: Phosphoramidase fluorescence assay; settings: Table 5
[2] = molecular target: hHINT1 (Homo sapiens, UniProt P49773); assay: Phosphoramidase fluorescence assay; assay type: biochemical
Method: The fluorescence of tryptophan (ex, 280 nm, em 360 nm) can be quenched when covalently attached to a nucleoside monophosphate, and nucleoside phosphoramidates of D- and L-tryptophan and tryptamine are excellent fluorescent substrates for hHINT1. Typically, after measurement of initial substrate fluorescence, hHINT1 was added to the reaction solution (HEPES buffer, pH 7.2, 25° C.) and the change in fluorescence over 2 min was determined by converting the slope into μM of substrate hydrolyzed per μg of enzyme per min with a standard curve. […] Based on the generation of chimeric polypeptides between the hHINTI and the hinT of E. coli, the preference for D enantiomers by the human HINT1 polypeptide is likely conferred by the C-terminus amino acids (e.g., the C-terminus 5, 6, 5 7, 8, 9, 10, or 11 amino acids) of the hHINT1 enzyme. The activity of hHINT1 with guanosine monophosphate (GMP) D-tryptophan phosphoramidate was approximately 7-fold greater than that for 7-benzyl guanosine monophosphate (7-Bn GMP), but nearly identical to that for GMP L-tryptophan. In addition, both D-tryptophan phosphoramidates of cytosine and uridine were substrates. Initial rates were determined 10 during the first 10-20% of the reaction for variable substrate concentrations. The Michaelis-Menten constants, kcat and Km, for selected nucleoside phosphosphoramidates have been determined. (Table 4). As observed in the initial screening assay, for phosphoramidates containing L-tryptophan, hHINT1 has a 7-fold greater preference for AMP phosphoramidates of L-tryptophan than GMP.

Sequences of proteins named here, by UniProt entry; tags and fusion partners are left off.
UniProt P0ACE7, whole entry: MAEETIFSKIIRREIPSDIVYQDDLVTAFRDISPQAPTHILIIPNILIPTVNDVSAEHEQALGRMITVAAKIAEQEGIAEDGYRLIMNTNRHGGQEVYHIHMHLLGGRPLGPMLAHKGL
UniProt P49773, whole entry: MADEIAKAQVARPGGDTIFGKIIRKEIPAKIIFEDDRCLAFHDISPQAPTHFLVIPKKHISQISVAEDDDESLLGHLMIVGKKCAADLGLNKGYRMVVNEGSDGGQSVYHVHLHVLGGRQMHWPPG

[3] = Table 4, HEPES buffer, pH 7.2, 25° C.

| Compound | Km [1] [µM] | k cat [1] [s⁻¹] | Km [2, 3] [µM] | k cat [2, 3] [s⁻¹] | Km ([2]; Table 5) [µM] | k cat ([2]; Table 5) [s⁻¹] | Preference of hHINT1 for AMP over GMP phosphoramidates of L-tryptophan [2] [fold] |
| --- | --- | --- | --- | --- | --- | --- | --- |
| COC(=O)[C@H](Cc1c[nH]c2ccccc12)NP(=O)(O)OC[C@H]1O[C@@H](n2cnc3c(=O)[nH]c(N)nc32)[C@H](O)[C@@H]1O | 19.9 | 1.96 ± 0.12 | 101 | 1.42 | 28.6 | 0.057 ± 0.02 |  |
| NC(=O)[C@H](Cc1c[nH]c2ccccc12)NP(=O)(O)OC[C@H]1O[C@@H](n2cnc3c(=O)[nH]c(N)nc32)[C@H](O)[C@@H]1O |  |  | 28.3 | 0.44 |  |  |  |
| COC(=O)[C@H](Cc1c[nH]c2ccccc12)NP(=O)(O)OC[C@H]1O[C@@H](n2cnc3c(N)ncnc32)[C@H](O)[C@@H]1O |  |  | 31.1 | 3.02 |  |  | 7 |
